Drawing on ChEMBL document CHEMBL3132754 (Medchemcomm, 2013), this text covers CLH for one molecule.

This series deals with Liver microsome. In words: Intrinsic clearance in human liver microsomes measured per gram of protein at 200 uM measured after 1 by LC/MS/MS method. It counts as ADME. In general terms: Microsomes from liver hold many membrane-bound enzymes, among them those of drug oxidation.

For `CC(C)N(CCCNC(=O)Nc1ccc(C(C)(C)C)cc1)C[C@H]1O[C@@H](n2cnc3c(N)ncnc32)[C@H](O)[C@@H]1O`, the CLH was determined as 24 µL/min.
